Drawing on DBAASP, this text covers MIC for two compounds.

What all share (experiment): ≥ marks a high value that may be exact or a test limit, other limits are often not marked, values filed in µg/mL are converted to µM
Assay [1] deals with Escherichia coli BL21.
Assay [2] concerns Pseudomonas aeruginosa PAO1.
Assay [3] deals with Staphylococcus aureus USA 300.
The subject of assay [4] is Streptococcus pyogenes M1T1 5448.
The subject of assay [5] is Erwinia amylovora PMV 6076.
Assay [6] deals with Pseudomonas syringae pv. syringae EPS 94.
Assay [7] concerns Xanthomonas campestris pv. Vesicatoria 2133-2.

Molecules are shown by their SMILES. Values after ≈ are worked out from the molar mass of the structure shown.

`CC[C@H](C)[C@H](NC(=O)[C@H](CO)NC(=O)[C@H](CCC(=O)O)NC(=O)[C@H](CCCN=C(N)N)NC(=O)CNC(=O)[C@H](C)N)C(=O)N[C@@H](CCCCN)C(=O)N[C@@H](C)C(=O)N[C@@H](Cc1ccc(O)cc1)C(=O)N[C@@H](CC(C)C)C(=O)N[C@@H](CCCCN)C(=O)N[C@@H](CCCCN)C(=O)N[C@@H](CCC(=O)O)C(=O)N[C@H](C(=O)N[C@@H](CCCCN)C(=O)N[C@@H](CCCCN)C(=O)N[C@@H](CCCCN)C(=O)NCC(=O)N[C@@H](CCCCN)C(=O)N[C@@H](CCCN=C(N)N)C(=O)N[C@@H](C)C(=O)N[C@H](C(=O)N[C@H](C(=O)N[C@@H](C)C(=O)N[C@@H](Cc1c[nH]c2ccccc12)C(=O)O)[C@@H](C)CC)C(C)C)[C@@H](C)CC` [AGRESIKAYLKKEIKKKGKRAVIAW]: the MIC in assay [1] was at least 32 µM; in assay [2] it was above 128 µM; in assay [3], at least 128 µM; in assay [4] it was at least 32 µM.

As for `CC[C@H](C)[C@H](NC(=O)CNC(=O)[C@H](CC(C)C)NC(=O)[C@H](Cc1ccc(O)cc1)NC(=O)[C@H](CCCCN)NC(=O)[C@H](CC(C)C)NC(=O)[C@@H](NC(=O)[C@H](CCCCN)NC(=O)[C@H](CCCCN)NC(=O)[C@H](Cc1ccccc1)NC(=O)[C@H](CC(C)C)NC(=O)[C@H](CCCCN)NC(=O)[C@@H](N)CCCCN)[C@@H](C)CC)C(=O)NCC(=O)N[C@@H](CCCCN)C(=O)N[C@@H](Cc1ccccc1)C(=O)N[C@@H](CC(C)C)C(=O)N[C@@H](Cc1cnc[nH]1)C(=O)N[C@@H](CO)C(=O)N[C@@H](C)C(=O)N[C@@H](CCCCN)C(=O)O` [KKLFKKILKYLGIGKFLHSAK], the MIC in assay [5] came out at 6.12 µM (≈ 15.1 µg/mL); in assay [6], 3.54 µM (≈ 8.7 µg/mL); in assay [7], 3.54 µM (≈ 8.7 µg/mL).

Usually MIC stands for the lowest concentration found to suppress growth. Low readings indicate greater potency, high ones weaker potency.
